# A selection: hits, their analogues and other compounds. The true share with any hit is near 2.3%.
# MC4R barr agon – agonists of human melanocortin 4 receptor (MC4R) beta-arrestin. P32245. activation, % at 8.9 µM. 360,000 compounds, 0.98% hits. U2OS MC4R beta-arrestin complementation, luminescence; percent of melanotan II response, DMSO zero;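 active = activation above a per-plate cutoff, the mean activation of sample wells on that plate plus 3 SD, cut at about 8% in these data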
# ASAP1 GAP inh – blocks human ASAP1-stimulated Arf1 GTP hydrolysis; Q9ULH1; GDP FP detection; 360,000 compounds, 0.19% hits; AID 624377; inhibition, % at 16.5 µM; in the data active = inhibition above about 25%;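 note: 0% = vehicle with enzyme and substrate and 100% = no enzyme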
# Yeast UUG start – modulators of start codon recognition fidelity in yeast; AID 602363; hit rate 0.13% among 350,000; activity score, % at 18.7 µM; S. cerevisiae UUG-firefly luciferase reporter, luminescence/redox ratio;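 active = replicate mean at a twofold rise or more, about +100% in these data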;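 note: firefly luciferase made from a UUG start codon reports start codon fidelity; reporter light over untreated wells divided by growth signal over untreated wells; some hits fall short of that in this replicate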
# NRP1-CendR mod – alters CendR peptide binding to human NRP-1; AID 602438; inhibition, % at 25 µM; FAM-RPARPAR peptide binding to NRP-1, fluorescence polarization; 360,000 compounds, 0.85% hits;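 active = inhibition or corrected inhibition above about 18%, plus a signal ratio from 0.5 to 1.5, limit read from the data, passing the limit was not always enough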
# ARFGAP1 inh – inhibitors of rat ARFGAP1 | Arfgap1-stimulated ARF1 GTP hydrolysis, GDP FP detection | inhibition, % at 16.5 µM | 360,000 compounds, 0.26% hits | AID 651572;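 active = inhibition above a per-plate limit, mean inhibition of low control wells plus 3 SD, cut at about 25% in these data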;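 note: 0% = DMSO wells with enzyme and 100% = wells lacking Arfgap1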
#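 Material: rat Arfgap1 catalytic domain, aa 1-136; also added: human ARF1(Δ1-17)-GTP substrate; compound dosing: one concentration, 16.5 µM, DMSO 1.26%; incubation: GTP hydrolysis reaction 2 h at 25 °C; measured by: Tracer-displacement fluorescence polarization with EDTA stop, 620/688 nm; evaluation: % inhibition from polarization; repeats: one replicate per compound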
# MC4R antagonist – blocks human MC4R cAMP signaling; P32245; MC4R-expressing cells, MTII-stimulated cAMP, LANCE TR-FRET; inhibition, % at 6.5 µM; 360,000 compounds, 0.48% hits; AID 540295;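 active = inhibition above its plate's cutoff, the mean of tested wells on that plate plus 3 SD, cut at about 29% in these data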;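 note: 0% = Melanotan II alone and 100% = Melanotan II plus saturating MCL0020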
#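 Assay system: U2OS cells stably expressing human melanocortin 4 receptor (MC4R) / Dosing: 6.5 µM / Timing: compound 30 min, challenge 1 h, detection 1 h / Measured by: Eu-cAMP/anti-cAMP TR-FRET, emission 671 nm / Replicates: singlicate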
# * marks the source's active call; other numbers are inactive results; · = not tested or not shown.
1) COc1ccc2ccccc2c1-c1sc(Nc2ccccc2)n[n+]1-c1ccc(F)cc1
2) COc1ccc(-c2sc(Nc3ccccc3)n[n+]2-c2ccc(F)cc2)cc1Br
3) CCC(=O)c1c[nH]c(C(=O)NCc2cccnc2)c1
4) Nc1ccc(C(=O)Nc2ccc(Nc3ccncc3)cc2)c([N+](=O)[O-])c1
5) COc1cc(C(=O)Nc2ccncc2)c([N+](=O)[O-])cc1OC
6) COc1ccc(-n2c(C)cc(C(=O)CSc3ccc(NC(C)=O)cc3)c2C)cc1
7) COc1cccc(-c2ccc3c(c2)[C@@H]2[C@@H](CCN2C(=O)C2CCOCC2)[C@H](CO)N3)c1
8) COc1ccc(-c2csc(NC(=S)NC(=O)/C=C/c3ccco3)n2)cc1OC
Assay by compound | 1 | 2 | 3 | 4 | 5 | 6 | 7 | 8
MC4R barr agon | 12* | -2 | -1 | -1 | -1 | 0 | · | 9.1*
Yeast UUG start | -23 | -20 | · | -19 | · | -5 | 0 | ·
NRP1-CendR mod | 3 | 4 | 22* | 27* | 1 | 42* | · | 0
MC4R antagonist | -4 | 2 | 2 | -2 | -1 | -6 | · | -20
ARFGAP1 inh | -3 | -4 | 6 | -6 | 1 | 10 | · | 7
ASAP1 GAP inh | -29 | -2 | -15 | 0 | 6 | -6 | · | 2

# In another format: four of the compounds above
entry	SMILES	MC4R barr agon	Yeast UUG start	NRP1-CendR mod	MC4R antagonist	ARFGAP1 inh	ASAP1 GAP inh
2	COc1ccc(-c2sc(Nc3ccccc3)n[n+]2-c2ccc(F)cc2)cc1Br	-2	-20	4	2	-4	-2
3	CCC(=O)c1c[nH]c(C(=O)NCc2cccnc2)c1	-1	·	22*	2	6	-15
4	Nc1ccc(C(=O)Nc2ccc(Nc3ccncc3)cc2)c([N+](=O)[O-])c1	-1	-19	27*	-2	-6	0
5	COc1cc(C(=O)Nc2ccncc2)c([N+](=O)[O-])cc1OC	-1	·	1	-1	1	6

# The results go on:
9) COc1ccc(S(=O)(=O)N(C)C[C@H]2OCCCC[C@H](C)Oc3ccc(NS(=O)(=O)c4ccc(C)cc4)cc3C(=O)N([C@H](C)CO)C[C@@H]2C)cc1
10) Cc1cc(C(=O)NC(C)C)on1
11) CCCNC(=O)c1cc(C)no1
12) CC(OC(=O)c1cccc(S(=O)(=O)Nc2cccc(C(F)(F)F)c2)c1)C(=O)Nc1ccc2c(c1)OCCO2 (centres undefined)
13) CN(C)C(=O)c1ccc(-c2ccc3c(c2)[C@@H]2[C@@H](CCN2C(=O)c2ccccn2)[C@H](CO)N3)cc1
14) O=C(/C=C/c1ccco1)NC(=S)Nc1ccc(N2CCOCC2)c(Cl)c1
15) Cc1ccc(O)c(CNCCNCc2cc(C)ccc2O)c1
16) Clc1cc(Cl)cc(Nc2ncnc(-n3cccc3)n2)c1
Assay by compound | 9 | 10 | 11 | 12 | 13 | 14 | 15 | 16
MC4R barr agon | · | -1 | -2 | -1 | · | 22* | 3 | 9.0*
Yeast UUG start | 2 | -12 | -12 | -7 | -2 | -6 | 3 | -4
NRP1-CendR mod | · | -1 | 25* | 31* | · | 3 | 25* | 8
MC4R antagonist | · | 4 | -3 | 4 | · | -29 | 7 | 11
ARFGAP1 inh | · | -10 | -6 | 9 | · | 7 | 0 | 2
ASAP1 GAP inh | · | 3 | -6 | 2 | · | -1 | -1 | 0

17) Cc1ccccc1NC(=O)CSc1nc2cc3c(cc2cc1C)CCC3
18) CCC(=O)Nc1ccc(NC(=O)CSc2nc3cc4c(cc3cc2C)CCC4)cc1
19) Cc1noc(C)c1NC(=O)N(C)C[C@@H]1Oc2ccc(NC(=O)Nc3ccccc3)cc2C(=O)N([C@H](C)CO)C[C@@H]1C
20) Cc1ccc(Oc2nnc(-c3ccc(C)cc3)c3ccccc23)cc1
21) COc1ccccc1C(=O)Nc1ccc(Oc2nnc(-c3ccc(C)cc3)c3ccccc23)cc1
22) COCC(=O)N1CC[C@H]2[C@@H]1c1cc(-c3ccc(F)cc3)ccc1N(C)[C@H]2CO
23) Fc1cnc(N2CCc3ccccc32)nc1N1CCc2ccccc21
24) CC1(C)CC(=O)c2cnc(N3CCc4ccccc43)nc2C1
Assay by compound | 17 | 18 | 19 | 20 | 21 | 22 | 23 | 24
MC4R barr agon | 3 | 9.4* | · | 4 | 1 | · | -2 | 1
Yeast UUG start | · | -10 | -1 | -5 | 2 | 15 | -26 | ·
NRP1-CendR mod | -12 | -15 | · | 29* | -5 | · | -12 | 28*
MC4R antagonist | -19 | 1 | · | 6 | 10 | · | -5 | 1
ARFGAP1 inh | -4 | 4 | · | 0 | -1 | · | -8 | 0
ASAP1 GAP inh | 4 | 5 | · | 6 | -1 | · | 5 | -3

25) CC(C)Oc1cc(NC(=O)CS(=O)CC(=O)N(C)C)c(Cl)cc1Cl (centres undefined)
26) Cc1c(C(=O)N2CCCCC2)oc2ccc(Br)cc12
27) Cc1ccc2oc(C(=O)N3CCCCCC3)c(C)c2c1
28) CCC(=O)NC(=S)Nc1ccc(NC(=O)COc2ccc(Cl)cc2Cl)cc1
29) O=C(C[C@@H]1CC[C@@H]2[C@H](COC[C@@H](O)CN2CC2CCOCC2)O1)N1CCOCC1
30) Cc1ccc(-n2ccc(=O)c(-c3ccnc(SCc4cccc(Cl)c4)n3)n2)cc1
31) CNC(=S)NNC(=O)c1sc2cc(C(F)(F)F)cnc2c1-c1cccnc1
32) Cn1c(-c2sc3cc(C(F)(F)F)cnc3c2-c2ccccn2)n[nH]c1=S
Assay by compound | 25 | 26 | 27 | 28 | 29 | 30 | 31 | 32
MC4R barr agon | -1 | -1 | -4 | 18* | · | 8.6* | -1 | 0
Yeast UUG start | · | · | 4 | -12 | -13 | -17 | · | -8
NRP1-CendR mod | 25* | -10 | 26* | -2 | · | -10 | 1 | 25*
MC4R antagonist | 4 | 1 | -4 | 1 | · | -8 | -8 | -3
ARFGAP1 inh | 2 | 6 | -18 | · | · | 12 | 1 | 8
ASAP1 GAP inh | -8 | 10 | -17 | · | · | -2 | 5 | -1

33) CNC(=S)NNC(=O)c1sc2cc(C(F)(F)F)cnc2c1-c1ccccn1
34) O=C(CCc1nc2sc3c(c2c(=O)[nH]1)CCCC3)Nc1cccc(Cl)c1
35) CCN(CC)C(=O)c1cccc(NC(=O)CCc2nc3sc4c(c3c(=O)[nH]2)CCCC4)c1
36) CC(C)Cc1nnc(NC(=O)CCC(=O)N2CCCCC2)s1
37) CCc1nnc(NC(=O)CCC(=O)N2CCCC2)s1
38) CCn1c(=S)sc2c(=O)n(CC(=O)Nc3ccc(Cl)cc3)c(C)nc21
39) CCn1c(=S)sc2c(=O)n(CC(=O)Nc3ccccc3)c(C)nc21
40) O=C(Nc1ccc(F)cc1)c1cc(S(=O)(=O)Nc2ccc(F)cc2)cs1
Assay by compound | 33 | 34 | 35 | 36 | 37 | 38 | 39 | 40
MC4R barr agon | -5 | 8.3* | -3 | -3 | 0 | 8.6* | 2 | 0
Yeast UUG start | · | · | -10 | 4 | -20 | -27 | -6 | 17
NRP1-CendR mod | 23* | -26 | -13 | 18* | -4 | 0 | 8 | 26*
MC4R antagonist | 1 | -1 | 4 | 2 | 2 | 25 | -4 | 5
ARFGAP1 inh | 1 | -5 | 2 | 4 | 8 | 17 | -1 | 10
ASAP1 GAP inh | 1 | -14 | 1 | 13 | 15 | -12 | -6 | 4

41) Cc1noc(C)c1S(=O)(=O)Nc1ccc2c(c1)C(=O)N([C@H](C)CO)C[C@H](C)[C@H](CN(C)S(C)(=O)=O)OCCCC[C@@H](C)O2
42) CC1CCN(C(=O)CSc2nncn2C)CC1
43) O=C(CNC(=O)c1ccc(Br)cc1)NCC(=O)OCC(=O)c1ccc(F)cc1
44) COc1ccc(S(=O)(=O)N(C)C[C@H]2Oc3c(NS(=O)(=O)c4ccccc4)cccc3C(=O)N([C@H](C)CO)C[C@H]2C)cc1
45) Cc1cccnc1NC(=O)c1ccco1
46) CCCCNC(=O)c1c(CSc2ccc(Cl)cc2)noc1C(=O)NCCC
47) CCCCNC(=O)c1onc(CSc2ccc(Cl)cc2)c1C(=O)NCCCC
48) COc1ccc(NC(=O)N(C)C[C@@H]2Oc3c(NC(=O)c4cnccn4)cccc3C(=O)N([C@@H](C)CO)C[C@@H]2C)cc1
49) CC1CCN(C(=O)c2nc[nH]c2C(=O)N2CCC(C)CC2)CC1
Assay by compound | 41 | 42 | 43 | 44 | 45 | 46 | 47 | 48 | 49
MC4R barr agon | · | -1 | -3 | · | 1 | 3 | 4 | · | -1
Yeast UUG start | -15 | -7 | -3 | 10 | -18 | -14 | 7 | 7 | -13
NRP1-CendR mod | · | 48* | 26* | · | 22* | 31* | 15 | · | 36*
MC4R antagonist | · | 6 | 18 | · | 6 | 6 | 1 | · | 2
ARFGAP1 inh | · | -8 | 1 | · | 10 | -5 | -12 | · | 5
ASAP1 GAP inh | · | -7 | -9 | · | 7 | 0 | -4 | · | 0

# Screening data as filed in PubChem.
